Experimental data: patent publication US8557784B2, “Glycyrrhizinates of morphinan derivatives” (Standard Chem. & Pharm. Co., Ltd., priority 2011, dated 2013)

Experiment: Solubility in water: water added by degrees until 0.1 g of compound fully dissolves

**Q.** For dextromethorphan glycyrrhizinate, which “Solubility compared with dextromethorphan hydrobromide” value (comparison in words) is on record?
**A.** less than dextromethorphan hydrobromide

**Q.** And the “Solubility (28° C.)” value (water, 28° C.)?
**A.** 0.067%

**Q.** And the “Water quantity for dissolving 0.1 g solute” value (water, 28° C.)?
**A.** 150 mL
